Ab-14 heavy chain CDR variants: yeast mating affinities

Data: MIT Lincoln Laboratory AlphaSeq set, Li et al. 2023, doi:10.1038/s41467-023-39022-2, as distributed in FLAb.

The target is the same throughout: PDVDLGDISGINAS, from the HR2 region of SARS-CoV-2 spike.

Parent: Ab-14, a human scFv built as VH, the linker GGGGSGGGGSGGGGS, VL. Only the CDRs of the heavy chain vary.
VH: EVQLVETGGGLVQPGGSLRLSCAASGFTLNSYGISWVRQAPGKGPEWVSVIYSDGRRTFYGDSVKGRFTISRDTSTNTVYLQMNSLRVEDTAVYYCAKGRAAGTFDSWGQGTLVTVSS
VL: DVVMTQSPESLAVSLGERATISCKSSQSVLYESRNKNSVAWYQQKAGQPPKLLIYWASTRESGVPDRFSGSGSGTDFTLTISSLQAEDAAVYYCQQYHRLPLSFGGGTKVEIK

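The starting antibody came from a phage panning campaign against this peptide. These sequences belong to a second round, designed from the earlier measurements on random variants of the parent. Several design methods are mixed in this list. The assay is AlphaSeq: two haploid yeast populations carry antibody and antigen on their surface. After mating in shaken culture at 30 °C for 16 h, diploids were selected and their barcode pairs sequenced. Read counts were normalised to the haploid input and turned into Kd by a linear fit to BCL2-family pairs of known affinity, for each replicate. The assay was run in six technical replicates.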

Each variant is given by its three heavy chain CDRs, as the data file delimits them; those of the parent are GFTLNSYGIS, VIYSDGRRTFYGDSVK, GRAAGTFDS. The Kd shown is the geometric mean over detected replicates; a lower Kd is a better binder. "not detected" means that the variant was in the library but no mating with the target was seen in any replicate; the authors take this as a sign of poor binding, and no number exists. The authors' rule: three or more of the six replicates give a measured affinity, fewer mean a poor binder. As a blank, each scFv also met three strains without target: over all heavy chain designs, 1% of these pairings were detected, typically at 120 nM and seldom below 7.0 nM. For each scFv, signals with the empty controls are counted beside the result. The parent sequence was in this pool as ten entries: three were never detected, three once, and four in most replicates, with averages from 2.2 nM to 240 nM. A sequence measured in both rounds can read differently, since the two assays cover different ranges.

CDR-H1	CDR-H2	CDR-H3	apparent Kd	replicates with signal	empty controls
GFNLDEYGIS	VIYADGRRTAYSDNVK	GEAGGTFDI	430 pM	6 of 6	0 of 18
GFHLNSYGIS	VIYADGRRTFYGDSVK	GRTAGTFDS	1.5 nM	6 of 6	1 of 18
GFCLNDYGIS	VIYSDGRRTAYIDSVK	GRAAGTFDS	16 nM	6 of 6	0 of 18
GFDLDEYGIS	VIYADGMRTAYADNVK	GETAGTFDQ	550 pM	6 of 6	0 of 18
GFDLNEYGIS	VIYADGMRTAYADDVK	GNNAGTFDL	380 pM	6 of 6	0 of 18
GFTLGSYGIS	VIYADGRRTFYGDSVK	GRAAGTFVS	not detected	0 of 6	0 of 18
GFTLNSYSIS	VIYSDGRRTAYGDSVK	GRAAGTFDV	not detected	0 of 6	1 of 18
GFTPNSYGIS	VIYSDGRRTFMGDSVK	GRAAGTFDS	not detected	0 of 6	0 of 18
GFDLNEYGIS	VIYADGVRTFYVDSVK	GNTAGTFDV	490 pM	6 of 6	0 of 18
HFILNQYGIS	VIYSDGRRTFYTDSVK	GRAAGIFDS	not detected	0 of 6	0 of 18
GFDINEYGIS	VIYADGRRTFYTDSVK	GGNAGTFDE	2.3 nM	6 of 6	0 of 18
GFTLNEYGIS	VIYSDGMRTFYSDSVK	GRAAGFFDS	not detected	0 of 6	2 of 18
GFTLDSYGIS	VIYSDGRRTFYGDAVK	GRTAGTFDS	9.5 nM	6 of 6	0 of 18
GFDLNEYGIS	VIYADGRRTFYADSVK	GNTAGTFNN	880 pM	6 of 6	0 of 18
GFTLNDYGIS	VIYSDGKRTQYCDSVK	GRAAGTFDS	17 nM	5 of 6	0 of 18
GFTLNSYGIS	VIYSDGKRTFYGDSVK	GRVAGTFDS	21 nM	6 of 6	1 of 18
GFDLNSYGIS	VIYSDGRRTFYSDSVK	GDAAGTFDS	2.2 nM	6 of 6	0 of 18
GFTLNSYGIS	VIYSDGRRTFYTDDVK	GEAAGTFES	110 nM	5 of 6	0 of 18
GFDLNEYGIS	VIYADGVRTSYKDSVK	GEAAGTFDV	460 pM	6 of 6	0 of 18
GFTLESYGIS	VIYSDGKRTFYIDSVK	GRAAGTFDS	200 nM	4 of 6	0 of 18
GFTLDSYGIS	VIYSDGRRTFMGDSVK	GRAAGTFTD	72 nM	1 of 6	0 of 18
GFDLNEYGIS	VIYADGRRTFYTDSVK	GTVAGTFDV	1.2 nM	6 of 6	0 of 18
GFDLNEYGIS	VIYADGMRTQYIDSVK	GNMAGTFDV	650 pM	6 of 6	0 of 18
GFGLTSYGIS	VIYSDGRRTFYGDSVK	GKAAGTFDS	4.6 nM	2 of 6	0 of 18
GFDIDEYGIS	VIYADGSRTAYSKNFK	GEDGIMLLF	not detected	0 of 6	0 of 18
GFDLNEYGIS	VIYADGKRKAYADSVK	GNVAGTFDL	440 pM	6 of 6	1 of 18
GFDLNSYGII	VIYSDGRRTFYGDPVK	GRAAGWFNS	not detected	0 of 6	0 of 18
GFSLNSYGIS	VIYSDGRRTFYGDNVK	GWTAGTFDS	2.1 nM	6 of 6	0 of 18
GFDINEYGIS	VIYADGQRVAYTNSFK	GTQSGNNIN	not detected	0 of 6	2 of 18
GADLNEYGIS	VIYADGRSVYYANSFK	GHNAGTFDS	150 nM	5 of 6	2 of 18
GFDLNEYGVS	VIYADGFRTSYTDSVK	GNIVDLSMA	not detected	0 of 6	1 of 18
GFTLNEYGIS	VIYSDGRRTFYGDSVK	GSAAGTKDS	not detected	0 of 6	0 of 18
GFTLNEYGIS	VIYSDGRRTQYQDSVK	GRAAGTFDS	9.7 nM	5 of 6	0 of 18
GFTLNSYGIS	VIYSDGVRTFYSDSVK	GEAAGTFDS	2.5 nM	6 of 6	0 of 18
GFNLNSYGIS	VIYSDGRRTFYGDSVK	GRAAGTYDW	7.1 nM	1 of 6	0 of 18
GFDFNEYGIS	VIYADGKRTAYADKVK	GGKNAFTDI	77 µM	1 of 6	1 of 18
GFVLNEYGIS	VIYSDGRRTFYADSVK	GKAAGTFDS	4.9 nM	5 of 6	0 of 18
GFDLNEYGIS	VIYADGLRTFYSDSVK	GQSAGTFDA	530 pM	6 of 6	1 of 18
GFSLNDYGIS	VIYSDGRRTFYGDWVK	GRTAGTFDS	2.7 nM	6 of 6	0 of 18
GFSLNSYGIS	VIYSDGRRTFYTDSVK	GMGAGTFDS	170 nM	1 of 6	0 of 18
GFTLNEYGIS	VIYSDGRRTFYGDSVK	GWAAGTFDK	39 nM	3 of 6	0 of 18
GFDLNEYGVS	VIYADGQRTYYTDSVK	GKVGDLLMA	800 pM	6 of 6	0 of 18
GFNLNEYGIS	VIYADGRRTFYSDSVK	GEQGGTFDV	4.7 nM	6 of 6	1 of 18
GFDLNEYGIS	VIYADGRRTFYSDSVK	GTTGGTFDM	570 pM	6 of 6	0 of 18
GFSLNSYGIS	VIYSDGRRTAYCDSVK	GRAAGTFDS	2.8 nM	6 of 6	0 of 18
GFTLNSYGIS	VIYSDGRRTFYKDSVK	GRAAGTFDS	53 nM	4 of 6	1 of 18
GFDLSEYGIS	VIYADGQRANYVSQVK	GEQAGGFVL	not detected	0 of 6	0 of 18
GFSLNEYGIS	VIYSDGRRTFYTDAVK	GRFAGTFDS	2.7 nM	6 of 6	0 of 18

Excerpt, the first 3 entries:

CDR-H1	CDR-H2	CDR-H3	apparent Kd	replicates with signal	empty controls
GFNLDEYGIS	VIYADGRRTAYSDNVK	GEAGGTFDI	430 pM	6 of 6	0 of 18
GFHLNSYGIS	VIYADGRRTFYGDSVK	GRTAGTFDS	1.5 nM	6 of 6	1 of 18
GFCLNDYGIS	VIYSDGRRTAYIDSVK	GRAAGTFDS	16 nM	6 of 6	0 of 18